Source: PubChem BioAssay (NCI)
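Exposure lasted 48 hours, with cells grown in 96-well plates and compounds tested at five concentrations. GI50 is the concentration that inhibits growth by half. TGI: total growth inhibition.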

Legend:
Assay in all cases: NCI anticancer screen, dose series, 48 h
786-0 renal = tested on: 786-0 renal
A498 renal = tested on: A498 renal
A549 NSCLC = tested on: A549 NSCLC
ACHN renal = tested on: ACHN renal
CAKI-1 renal = tested on: CAKI-1 renal
COLO 205 colon = tested on: COLO 205 colon
DU-145 prostate = tested on: DU-145 prostate
EKVX NSCLC = tested on: EKVX NSCLC
HCC-2998 colon = tested on: HCC-2998 colon
HCT-116 colon = tested on: HCT-116 colon
HCT-15 colon = tested on: HCT-15 colon
HL-60(TB) leukemia = tested on: HL-60(TB) leukemia
HOP-62 NSCLC = tested on: HOP-62 NSCLC
HS 578T breast = tested on: HS 578T breast
HT29 colon = tested on: HT29 colon
IGROV1 ovarian = tested on: IGROV1 ovarian
K-562 leukemia = tested on: K-562 leukemia
KM12 colon = tested on: KM12 colon
LOX IMVI melanoma = tested on: LOX IMVI melanoma
M14 melanoma = tested on: M14 melanoma
MALME-3M melanoma = tested on: MALME-3M melanoma
MCF7 breast = tested on: MCF7 breast
MDA-MB-231 breast = tested on: MDA-MB-231 breast
MOLT-4 leukemia = tested on: MOLT-4 leukemia
NCI-H226 lung = tested on: NCI-H226 lung
NCI-H23 lung = tested on: NCI-H23 lung
NCI-H322M lung = tested on: NCI-H322M lung
NCI-H460 lung = tested on: NCI-H460 lung
NCI-H522 lung = tested on: NCI-H522 lung
NCI/ADR-RES ovarian = tested on: NCI/ADR-RES ovarian
OVCAR-3 ovarian = tested on: OVCAR-3 ovarian
OVCAR-4 ovarian = tested on: OVCAR-4 ovarian
OVCAR-5 ovarian = tested on: OVCAR-5 ovarian
OVCAR-8 ovarian = tested on: OVCAR-8 ovarian
PC-3 prostate = tested on: PC-3 prostate
RPMI-8226 leukemia = tested on: RPMI-8226 leukemia
SF-268 CNS = tested on: SF-268 CNS
SF-539 CNS = tested on: SF-539 CNS
SK-MEL-2 melanoma = tested on: SK-MEL-2 melanoma
SK-MEL-28 melanoma = tested on: SK-MEL-28 melanoma
SK-MEL-5 melanoma = tested on: SK-MEL-5 melanoma
SK-OV-3 ovarian = tested on: SK-OV-3 ovarian
SN12C renal = tested on: SN12C renal
SNB-19 CNS = tested on: SNB-19 CNS
SR leukemia = tested on: SR leukemia
SW-620 colon = tested on: SW-620 colon
T-47D breast = tested on: T-47D breast
TK-10 renal = tested on: TK-10 renal
U251 CNS = tested on: U251 CNS
UACC-257 melanoma = tested on: UACC-257 melanoma
UACC-62 melanoma = tested on: UACC-62 melanoma
UO-31 renal = tested on: UO-31 renal

`Cc1ccc(S(=O)(=O)n2cc([C@@]3(O)C[C@H](CC#N)OC3=O)c3ccccc32)cc1` gave a GI50 (786-0 renal) of 3.79 µM, a TGI (786-0 renal) of over 100 µM and a GI50 (A498 renal) of 3.29 µM. For the same molecule, the TGI (A498 renal) was 10.7 µM, the GI50 (A549 NSCLC) was 3.49 µM and the TGI (A549 NSCLC) was 61.8 µM. It also gave a GI50 (ACHN renal) of 1.56 µM, a TGI (ACHN renal) of 75.5 µM and a GI50 (CAKI-1 renal) of 1.12 µM. For the same molecule, the TGI (CAKI-1 renal) was 23.1 µM, the GI50 (COLO 205 colon) was 1.73 µM and the TGI (COLO 205 colon) was 4.22 µM. For the same molecule, the GI50 (DU-145 prostate) was 2.1 µM, the TGI (DU-145 prostate) was 4.62 µM and the GI50 (EKVX NSCLC) was 4.11 µM. The TGI (EKVX NSCLC) was over 100 µM, the GI50 (HCC-2998 colon) was 2.18 µM and the TGI (HCC-2998 colon) was 9.15 µM. It also gave a GI50 (HCT-116 colon) of 9.2 µM, a TGI (HCT-116 colon) of 30.7 µM and a GI50 (HCT-15 colon) of 1.53 µM. It also gave a TGI (HCT-15 colon) of over 100 µM, a GI50 (HL-60(TB) leukemia) of 3.22 µM and a TGI (HL-60(TB) leukemia) of over 100 µM. For the same molecule, the GI50 (HOP-62 NSCLC) was 4.36 µM, the TGI (HOP-62 NSCLC) was over 100 µM and the GI50 (HS 578T breast) was 1.86 µM. The TGI (HS 578T breast) was 26.2 µM, the GI50 (HT29 colon) was 0.504 µM and the TGI (HT29 colon) was over 100 µM. The GI50 (IGROV1 ovarian) was 3.09 µM, the TGI (IGROV1 ovarian) was over 100 µM and the GI50 (K-562 leukemia) was 1.25 µM. It also gave a TGI (K-562 leukemia) of over 100 µM, a GI50 (KM12 colon) of 0.805 µM and a TGI (KM12 colon) of over 100 µM. It also gave a GI50 (LOX IMVI melanoma) of 0.511 µM, a TGI (LOX IMVI melanoma) of over 100 µM and a GI50 (M14 melanoma) of 0.449 µM. It also gave a TGI (M14 melanoma) of over 100 µM, a GI50 (MALME-3M melanoma) of 0.357 µM and a TGI (MALME-3M melanoma) of 29.3 µM. It also gave a GI50 (MCF7 breast) of 0.274 µM, a TGI (MCF7 breast) of 32.3 µM and a GI50 (MDA-MB-231 breast) of 1.88 µM. The TGI (MDA-MB-231 breast) was over 100 µM, the GI50 (MOLT-4 leukemia) was 2.55 µM and the TGI (MOLT-4 leukemia) was 85.8 µM. For the same molecule, the GI50 (NCI-H226 lung) was 0.966 µM, the TGI (NCI-H226 lung) was 13.9 µM and the GI50 (NCI-H23 lung) was 3.5 µM. The TGI (NCI-H23 lung) was over 100 µM, the GI50 (NCI-H322M lung) was 3.14 µM and the TGI (NCI-H322M lung) was 28.1 µM. The GI50 (NCI-H460 lung) was 2.52 µM, the TGI (NCI-H460 lung) was 21.6 µM and the GI50 (NCI-H522 lung) was 3.18 µM. The TGI (NCI-H522 lung) was over 100 µM, the GI50 (NCI/ADR-RES ovarian) was 1.42 µM and the TGI (NCI/ADR-RES ovarian) was over 100 µM. It also gave a GI50 (OVCAR-3 ovarian) of 1.23 µM, a TGI (OVCAR-3 ovarian) of 5.58 µM and a GI50 (OVCAR-4 ovarian) of 11.9 µM. For the same molecule, the TGI (OVCAR-4 ovarian) was over 100 µM, the GI50 (OVCAR-5 ovarian) was 3.79 µM and the TGI (OVCAR-5 ovarian) was over 100 µM. For the same molecule, the GI50 (OVCAR-8 ovarian) was 2.52 µM, the TGI (OVCAR-8 ovarian) was 11.6 µM and the GI50 (PC-3 prostate) was 1.17 µM. It also gave a TGI (PC-3 prostate) of over 100 µM, a GI50 (RPMI-8226 leukemia) of 0.332 µM and a TGI (RPMI-8226 leukemia) of 3.33 µM. For the same molecule, the GI50 (SF-268 CNS) was 1.51 µM, the TGI (SF-268 CNS) was 59.9 µM and the GI50 (SF-539 CNS) was 0.352 µM. The TGI (SF-539 CNS) was 2.25 µM, the GI50 (SK-MEL-2 melanoma) was 5.34 µM and the TGI (SK-MEL-2 melanoma) was over 100 µM. It also gave a GI50 (SK-MEL-28 melanoma) of 13.7 µM, a TGI (SK-MEL-28 melanoma) of over 100 µM and a GI50 (SK-MEL-5 melanoma) of 0.259 µM. For the same molecule, the TGI (SK-MEL-5 melanoma) was 12.8 µM, the GI50 (SK-OV-3 ovarian) was 2.26 µM and the TGI (SK-OV-3 ovarian) was over 100 µM. The GI50 (SN12C renal) was 1.17 µM, the TGI (SN12C renal) was 69.3 µM and the GI50 (SNB-19 CNS) was 11.8 µM. For the same molecule, the TGI (SNB-19 CNS) was over 100 µM, the GI50 (SR leukemia) was 4.52 µM and the TGI (SR leukemia) was 9.32 µM. The GI50 (SW-620 colon) was 0.475 µM, the TGI (SW-620 colon) was over 100 µM and the GI50 (T-47D breast) was over 100 µM. The TGI (T-47D breast) was over 100 µM, the GI50 (TK-10 renal) was 1.24 µM and the TGI (TK-10 renal) was 6.78 µM. It also gave a GI50 (U251 CNS) of 1.12 µM, a TGI (U251 CNS) of over 100 µM and a GI50 (UACC-257 melanoma) of 0.929 µM. For the same molecule, the TGI (UACC-257 melanoma) was 26 µM, the GI50 (UACC-62 melanoma) was 0.764 µM and the TGI (UACC-62 melanoma) was 40.4 µM. For the same molecule, the GI50 (UO-31 renal) was 27.6 µM and the TGI (UO-31 renal) was over 100 µM.
